Measurements as given in PMC5834697 (Proceedings of the National Academy of Sciences of the …, 2018).

Protein sequences, listed by entry. Tags and fused reporters are not part of them.
UniProt P08183, whole entry: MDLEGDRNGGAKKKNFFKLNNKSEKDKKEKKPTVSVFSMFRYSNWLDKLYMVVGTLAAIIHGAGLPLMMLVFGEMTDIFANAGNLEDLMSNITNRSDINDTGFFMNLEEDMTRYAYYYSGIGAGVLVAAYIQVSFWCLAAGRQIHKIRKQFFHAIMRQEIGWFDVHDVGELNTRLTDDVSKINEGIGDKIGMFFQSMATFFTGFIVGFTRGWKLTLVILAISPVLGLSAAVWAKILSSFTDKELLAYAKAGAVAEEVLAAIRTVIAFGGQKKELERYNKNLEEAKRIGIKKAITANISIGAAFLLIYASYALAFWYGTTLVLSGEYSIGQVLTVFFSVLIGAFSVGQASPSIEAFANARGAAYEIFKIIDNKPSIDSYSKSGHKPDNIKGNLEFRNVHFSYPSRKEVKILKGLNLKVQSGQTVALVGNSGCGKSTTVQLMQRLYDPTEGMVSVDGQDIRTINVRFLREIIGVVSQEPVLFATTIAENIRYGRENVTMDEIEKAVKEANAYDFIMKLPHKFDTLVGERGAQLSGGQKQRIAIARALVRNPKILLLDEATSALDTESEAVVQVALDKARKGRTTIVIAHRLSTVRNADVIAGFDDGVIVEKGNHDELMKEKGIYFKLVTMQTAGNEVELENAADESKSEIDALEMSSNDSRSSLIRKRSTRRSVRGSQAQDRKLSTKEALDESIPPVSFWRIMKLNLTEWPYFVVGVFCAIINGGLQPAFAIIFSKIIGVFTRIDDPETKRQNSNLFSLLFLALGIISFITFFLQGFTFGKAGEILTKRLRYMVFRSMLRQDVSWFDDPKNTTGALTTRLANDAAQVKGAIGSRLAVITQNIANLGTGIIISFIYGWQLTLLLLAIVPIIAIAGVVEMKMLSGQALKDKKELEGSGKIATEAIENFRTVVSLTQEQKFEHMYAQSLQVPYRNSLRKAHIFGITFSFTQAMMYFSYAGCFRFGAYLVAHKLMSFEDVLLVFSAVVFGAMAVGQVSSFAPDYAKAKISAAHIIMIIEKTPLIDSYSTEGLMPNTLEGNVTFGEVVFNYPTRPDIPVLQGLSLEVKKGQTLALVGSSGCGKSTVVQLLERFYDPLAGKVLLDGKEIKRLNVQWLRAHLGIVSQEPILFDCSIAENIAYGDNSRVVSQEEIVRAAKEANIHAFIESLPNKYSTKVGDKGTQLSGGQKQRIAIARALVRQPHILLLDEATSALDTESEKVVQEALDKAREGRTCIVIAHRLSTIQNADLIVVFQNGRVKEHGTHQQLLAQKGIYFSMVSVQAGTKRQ

Biological target: human ABCB1 (P-glycoprotein), Avi-tagged and biotinylated (Homo sapiens, UniProt P08183, biotin (BirA, on the Avi tag))
Experiment: ELISA

binding result: binds
B1: UIC2 antibody (antibody, V domains shown)
VH: EVQLQESGPELVKTGASVKISCKASGYSFSNYYIHWVKQSHGKSLEWIGFISCYNGATFYNQKFKGKATFTVDNSSSTAYMKFNSLTFEDSAVYYCARLPIQFGNFYPMDYWGQGTTVTVSS
VL: QVVMTQSPLSLPVSLGDQASISCRSSQSLLHSNGNTYLHWYLQKPGQSPKLLIYKVSNRFSGVPDRFSGSGSGTDFTLKISRVEAEDLGVYFCSQSTHIPPWTFGGGTKLDIK
